Assays:
[1] = Circular dichroism spectroscopy, helical contents of Beclin1 peptides; assay type: physicochemical; conditions: CD, mean residue ellipticity at 222 nm; 0.1 mg/mL peptide in 40 mM sodium phosphate buffer (pH 7.0) containing 30% TFE; accumulation of three scans
Experimental: Data were collected on a JASCO model J-810 spectropolarimeter with a 0.2 cm cuvette. CD spectrum was recorded over the range of 200–250 nm in a nitrogen atmosphere with peptides dissolved in 40 mM sodium phosphate buffer (pH 7.0) containing 30% TFE at the concentration of 0.1 mg/mL. The spectrum was the accumulation of three scans corrected by subtracting signals from the buffer control. The law CD signal at 222 nm (in millidegrees) was converted to mean residue ellipticity ([θ]obs, in deg ^. cm^2 ^. dmol^−1) using the equation [drawing 1] where C is the peptide concentration (in millimolarity), n is the number of residues in the peptide, and l is the pathlength (in cm). The contents of helix (F helix) was calculated using the equation [drawing 2] where [θ]helix represents the mean residue ellipticity for a complete helix of infinite length at 0 °C (−42,500(1−3/n) deg ^. cm^2 ^. dmol^−1) and [θ]coil is the ellipticity of a complete random coil at 0 °C (640 deg ^. cm^2 .dmol^−1).
The Beclin1(101–125) peptide has considerably higher helical contents than the Beclin1(106–125) peptide. (257 KB TIF) Click here for additional data file.

Sequences of proteins named here, by UniProt entry; tags and fusion partners are left off. Residues count along the entry.
UniProt P89884, 1-137: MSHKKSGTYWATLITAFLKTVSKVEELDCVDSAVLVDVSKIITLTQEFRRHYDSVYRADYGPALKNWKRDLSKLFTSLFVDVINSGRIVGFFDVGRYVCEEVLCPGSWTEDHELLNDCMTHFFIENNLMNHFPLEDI

[2] = target: T1, M11, viral BCL-2 of murine γ-herpesvirus 68 (residues 1–137) (Murid herpesvirus 4, UniProt P89884); assay type: binding; conditions: ITC, 25 °C, 20 mM Tris-HCl (pH 7.4), 100 mM NaCl; Table S2
T1 construct: Each of the DNA fragments coding for M11 (residues 1–137); His6 tag; This is inferred: pPROEX HTa encodes an N-terminal His tag with a TEV site, and purification was on Ni-NTA; (N); made in house; host or cells: E. coli BL21(DE3)
Excerpt: “HT”, “CCD” and “ECD” denote hydrophobic tail, coiled-coil domain and evolutionarily conserved domain, respectively. […] The surface coloring scheme is as follows: olive for Val, Leu, Ile, Phe, Trp, Met, and Ala; yellow for Cys, Gly, Tyr, and Pro; gray for other amino acids. […] Only the BH3-binding groove region of M11 is shown for clarity. […] The arrows indicate the movements of the Cα atoms of Asp59 and Tyr60 in M11. (C) ITC analysis.
Figure 5 Analyses of the Interactions between M11 or BCL-2 Proteins and BAX/BAK (A) Cell-based binding assay. 293T cells were transfected with HA-tagged BAK or Flag-tagged BAX together with the indicated GST-tagged prosurvival BCL-2 proteins. Whole cell lysates were used for immunoprecipitation with anti-GST followed by immunoblotting with anti-HA or anti-Flag. […] (B) ITC analyses of the interactions of M11 with the BH3 peptides of BAX or BAK. The ITC analysis was carried out by titrating 0.1 mM of the indicated peptides into 5 μM of M11. The ITC run for the titration of the 26-mer BAK peptide is shown. […] NIH3T3 cells were transfected with HA-tagged M11 and whole cell lysates were used for immunoprecipitation with control rabbit serum or anti-BAK followed by immunoblotting with anti-HA.
A plasmid containing the DNA segment coding for human BCL-2 (residues 1–50 and 92–207) was also constructed. The resulting protein lacks the internal long loop (residues 51–91) and contains a replacement of residues 35–50 with residues 33–48 of BCL-XL, which was necessary for the solubility of the protein as reported earlier. Each construct was introduced into the E. coli BL21(DE3) strain. The proteins were expressed at 21 °C overnight and purified using a Ni-NTA column and a Hitrap Q anion exchange column.
All measurements were carried out at 25 °C on a MicroCalorimetry System (MicroCal). Protein samples were dialyzed against the solution containing 20 mM Tris-HCl (pH 7.4) and 100 mM NaCl. The samples were degassed for 20 min and centrifuged to remove any residuals prior to the measurements. Dilution enthalpies were measured in separate experiments (titrant into buffer) and subtracted from the enthalpies of the binding between the protein and the titrant. Data were analyzed using the Origin software (OriginLab Corp.).

CC[C@H](C)[C@H](NC(=O)[C@H](CC(=O)O)NC(=O)[C@H](Cc1ccccc1)NC(=O)[C@H](CC(C)C)NC(=O)[C@H](CC(=O)O)NC(=O)CNC(=O)[C@@H](NC(=O)[C@@H](NC(=O)[C@H](CCCCN)NC(=O)[C@H](CC(C)C)NC(=O)[C@H](CCCNC(=N)N)NC(=O)[C@H](CCCNC(=N)N)NC(=O)[C@H](CO)NC(=O)[C@H](CC(C)C)NC(=O)[C@H](CC(N)=O)NC(=O)[C@H](CCC(=O)O)NC(=O)[C@H](CCSC)NC(=O)[C@@H](N)[C@@H](C)O)C(C)C)[C@@H](C)O)C(=O)N[C@@H](CCSC)C(=O)N[C@@H](CO)C(=O)O [Beclin1(106–125)]
helical contents [1]: 17.0% | -T∆S (M11 + Beclin1) [2]: 5.13 kcal/mol | ∆G (M11 + Beclin1) [2]: -7.91 kcal/mol | ∆H (M11 + Beclin1) [2]: -13.04 ± 0.27 kcal/mol

CC[C@H](C)[C@H](NC(=O)[C@H](CC(=O)O)NC(=O)[C@H](Cc1ccccc1)NC(=O)[C@H](CC(C)C)NC(=O)[C@H](CC(=O)O)NC(=O)CNC(=O)[C@@H](NC(=O)[C@@H](NC(=O)[C@H](CCCCN)NC(=O)[C@H](CC(C)C)NC(=O)[C@H](CCCNC(=N)N)NC(=O)[C@H](CCCNC(=N)N)NC(=O)[C@H](CO)NC(=O)[C@H](CC(C)C)NC(=O)[C@H](CC(N)=O)NC(=O)[C@H](CCC(=O)O)NC(=O)[C@H](CCSC)NC(=O)[C@@H](NC(=O)CNC(=O)CNC(=O)[C@H](CC(=O)O)NC(=O)[C@H](CO)NC(=O)[C@H](C)N)[C@@H](C)O)C(C)C)[C@@H](C)O)C(=O)N[C@@H](CCSC)C(=O)N[C@@H](CO)C(=O)O [Beclin1(101–125)]
helical contents [1]: 29.6% | -T∆S (M11 + Beclin1) [2]: 5.01 kcal/mol | ∆G (M11 + Beclin1) [2]: -9.56 kcal/mol | ∆H (M11 + Beclin1) [2]: -14.57 ± 0.11 kcal/mol
